According to ChEMBL document CHEMBL1155446, “Imidazo[4,5-b]pyridine derivatives as inhibitors of Aurora kinases: lead optimization studies toward the identification of an orally bioavailable preclinical development candidate” (J Med Chem, 2010):

Target: T1, Cytochrome P450 2A6 (Homo sapiens, UniProt P11509)
T1 sequence (P11509 whole entry): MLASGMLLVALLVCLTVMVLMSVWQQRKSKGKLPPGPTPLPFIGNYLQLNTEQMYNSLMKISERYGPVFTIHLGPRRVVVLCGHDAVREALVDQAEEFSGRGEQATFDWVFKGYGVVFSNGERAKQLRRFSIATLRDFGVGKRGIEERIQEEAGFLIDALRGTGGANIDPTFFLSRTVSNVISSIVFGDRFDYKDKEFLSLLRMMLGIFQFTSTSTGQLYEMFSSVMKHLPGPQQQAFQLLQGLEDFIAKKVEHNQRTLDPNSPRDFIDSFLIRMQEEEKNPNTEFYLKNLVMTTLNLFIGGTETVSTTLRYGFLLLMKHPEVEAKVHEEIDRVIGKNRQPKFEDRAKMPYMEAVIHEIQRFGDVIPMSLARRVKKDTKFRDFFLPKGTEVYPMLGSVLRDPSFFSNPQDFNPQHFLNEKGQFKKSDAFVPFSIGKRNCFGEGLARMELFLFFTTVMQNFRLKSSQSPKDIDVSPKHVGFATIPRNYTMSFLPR
Assay: Inhibition of CYP2A6 from human liver microsome by LC-MS/MS analysis
Type: ADME, tissue-based

- IC50: > 10 µM
SMILES: Cc1cc(CN2CCN(c3c(Br)cnc4[nH]c(N5CCN(C)CC5)nc34)CC2)no1
